# Patent US8778958B2, “Synthesis of metabolically stable agents for alcohol and drug abuse” (priority 2008, dated 2014)
# Amino acid sequences for entries named in this document (tags omitted). A change or cut given only in a name is not applied to a line headed by its entry.
# UniProt P32300, whole entry: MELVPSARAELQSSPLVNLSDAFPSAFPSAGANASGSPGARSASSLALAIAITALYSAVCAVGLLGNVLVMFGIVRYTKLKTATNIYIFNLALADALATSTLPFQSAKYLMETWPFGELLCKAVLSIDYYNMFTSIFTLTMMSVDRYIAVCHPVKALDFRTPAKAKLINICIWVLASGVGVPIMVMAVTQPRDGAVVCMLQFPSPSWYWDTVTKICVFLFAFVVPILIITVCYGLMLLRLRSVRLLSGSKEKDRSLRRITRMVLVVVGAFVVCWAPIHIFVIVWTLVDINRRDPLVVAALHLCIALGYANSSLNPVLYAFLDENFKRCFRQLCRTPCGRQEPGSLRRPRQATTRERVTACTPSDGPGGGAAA
# UniProt P35372, whole entry: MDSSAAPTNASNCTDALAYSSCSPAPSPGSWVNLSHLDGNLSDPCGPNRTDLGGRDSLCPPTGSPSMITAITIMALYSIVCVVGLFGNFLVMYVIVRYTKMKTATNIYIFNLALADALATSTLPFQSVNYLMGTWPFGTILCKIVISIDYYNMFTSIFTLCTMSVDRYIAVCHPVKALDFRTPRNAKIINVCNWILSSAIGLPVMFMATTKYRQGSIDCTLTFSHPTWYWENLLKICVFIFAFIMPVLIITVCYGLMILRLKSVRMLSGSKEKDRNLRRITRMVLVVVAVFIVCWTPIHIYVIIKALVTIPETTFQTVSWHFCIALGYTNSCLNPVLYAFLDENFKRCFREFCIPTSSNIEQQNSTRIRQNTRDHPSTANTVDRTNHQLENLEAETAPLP
# UniProt P41145: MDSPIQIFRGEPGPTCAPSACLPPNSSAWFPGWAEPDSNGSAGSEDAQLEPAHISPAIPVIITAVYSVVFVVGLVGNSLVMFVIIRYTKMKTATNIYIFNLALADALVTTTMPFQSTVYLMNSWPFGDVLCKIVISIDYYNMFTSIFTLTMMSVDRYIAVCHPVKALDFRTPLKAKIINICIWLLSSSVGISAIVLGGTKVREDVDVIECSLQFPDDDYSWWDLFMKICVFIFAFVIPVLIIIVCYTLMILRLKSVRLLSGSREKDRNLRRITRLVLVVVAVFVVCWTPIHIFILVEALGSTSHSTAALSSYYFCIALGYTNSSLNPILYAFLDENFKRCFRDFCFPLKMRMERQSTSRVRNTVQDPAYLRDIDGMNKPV
# Columns and labels:
# δ-opioid receptor [1] = biological target: T1, δ-opioid receptor (Homo sapiens, UniProt P41143); format: binding; settings: read-out: Ki (nM) ± SEM, δ
# T1 construct: expressed in transfected cells; host or cells: CHO cells
# δ-opioid receptor [2] = biological target: T2, δ-opioid receptor (Mus musculus, UniProt P32300); format: biochemical, human; settings: read-out: EC50, δ, stimulation of [35S]GTPγS binding
# T2 construct: hemagglutinin (HA); expressed in transfected cells
# μ-opioid receptor = biological target: T3, μ-opioid receptor (Homo sapiens, UniProt P35372); format: binding; settings: read-out: Ki (nM) ± SEM, μ
# T3 construct: expressed in transfected cells; host or cells: CHO cells
# κ-opioid receptor = biological target: T4, κ-opioid receptor (Homo sapiens, UniProt P41145); format: binding; settings: read-out: Ki (nM) ± SEM, κ
# T4 construct: expressed in transfected cells; host or cells: CHO cells
SMILES,Ki (δ-opioid receptor [1]) [nM],EC50 (δ-opioid receptor [2]) [nM],Ki (μ-opioid receptor) [nM],Ki (κ-opioid receptor) [nM]
"O=C(N[C@@H]1CC[C@@]2(O)[C@H]3Cc4ccc(O)c5c4[C@@]2(CCN3CC2CC2)[C@H]1O5)c1ccc(Cl)cc1 [Compound 10, 6-β-(4′-Chloro)benzamido-14-hydroxy-17-(cyclopropylmethyl)nordesmorphine]",2.6 ± 0.3,42 ± 3.1,–,–
"O=C(N[C@@H]1CC[C@@]2(O)[C@H]3Cc4ccc(O)c5c4[C@@]2(CCN3CC2CC2)[C@H]1O5)c1ccc(Br)cc1 [Compound 6, 6-β-(4′-Bromo)benzamido-14-hydroxy-17-(cyclopropylmethyl) nordesmorphine]",2.2 ± 0.3,–,0.88 ± 0.1,0.29 ± 0.04
